We go through 7 compounds from patent US10689367B2, “Triazole pyridyl compounds as agonists of the APJ receptor” (AMGEN INC., priority 2016, dated 2020).

Chains of the proteins cited; added tags and fusions are not shown.
UniProt P35414, whole entry: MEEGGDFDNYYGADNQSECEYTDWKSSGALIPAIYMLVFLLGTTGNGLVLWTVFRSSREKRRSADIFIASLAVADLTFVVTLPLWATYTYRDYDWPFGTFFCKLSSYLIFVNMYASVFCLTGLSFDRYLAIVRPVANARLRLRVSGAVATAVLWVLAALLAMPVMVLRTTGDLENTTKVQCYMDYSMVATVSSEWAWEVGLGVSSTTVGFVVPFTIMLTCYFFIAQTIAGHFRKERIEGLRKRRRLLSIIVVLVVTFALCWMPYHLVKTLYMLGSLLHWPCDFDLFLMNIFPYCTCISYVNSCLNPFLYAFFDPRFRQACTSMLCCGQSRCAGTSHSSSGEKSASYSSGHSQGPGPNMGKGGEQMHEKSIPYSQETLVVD

As a reminder, the EC50 is the concentration needed to bring the measured effect to its halfway point.

In the assay the target is APJ receptor (Homo sapiens (Human), UniProt P35414). Nature of the assay: [35S]GTPγS binding assay on membranes from CHO cells stably expressing human APJ receptor. In kind it is biochemical. To be noted: read-out: Activity hAPJ SPA EC50 IP, membranes of CHO cells stably expressing human APJ receptor. Here is the method: The human APJ receptor was cloned by polymerase chain reaction and the gene encoding the receptor was subcloned in pFLAG-CMV™-3 expression vector (Sigma, Saint Louis, Mo. USA) in-house at Amgen. A GTPγS binding assay was performed on membranes prepared from CHO cells stably expressing human APJ receptor. The optimum experimental conditions for the concentrations of GDP, MgCl2, and NaCl in the assay buffer were initially determined. […] Incubation was at RT for 90 min and the microplate was read using a ViewLux™ ultra HTS Microplate Imager (PerkinElmer, Inc.). All the results presented are means of several independent experiments and analyzed by non-linear regression methods using the commercially available program Prism (GraphPad, San Diego, Calif.) providing the EC50 values detailed in Table 27.
In general terms: GTPγS is a poorly hydrolysed GTP analogue; its binding reports G protein activation.
Take `COc1cccc(-c2nnc(NS(=O)(=O)[C@@H](C)[C@H](OC)c3ncc(Cl)cn3)n2C(C)C2CN(C)CCO2)n1` (single isomer, unassigned): the EC50 was determined as 11 nM. `COc1cccc(-c2nnc(NS(=O)(=O)[C@@H](C)[C@H](OC)c3ncc(Cl)cn3)n2C(C)C2COCCO2)n1` (single isomer, unassigned) [142.0]: the EC50 was found to be 11 nM. Regarding `COc1cccc(-c2nnc(NS(=O)(=O)[C@@H](C)[C@H](OC)c3ncc(Cl)cn3)n2C(C)C2COCCO2)n1` (single isomer, unassigned) [143.0], the EC50 worked out at 9.8 nM. For the compound `COc1cccc(-c2nnc(NS(=O)(=O)[C@@H](C)[C@H](C)c3ncc(Cl)cn3)n2C(C)C2COCCO2)n1` (single isomer, unassigned) [144.0], the EC50 was 14 nM.

Take `COc1cccc(-c2nnc(NS(=O)(=O)[C@@H](C)[C@H](C)c3ncc(Cl)cn3)n2C(C)C2COCCO2)n1` (single isomer, unassigned) [145.0]: the EC50 worked out at 19 nM. On to `COc1cccc(-c2nnc(NS(=O)(=O)[C@@H](C)[C@@H](OC(C)C)c3ncc(Cl)cn3)n2C(C)C2COCCO2)n1` (single isomer, unassigned) [146.0], for which the EC50 was found to be 1.5 nM. To `COc1cccc(-c2nnc(NS(=O)(=O)[C@@H](C)[C@@H](OC(C)C)c3ncc(Cl)cn3)n2C(C)C2COCCO2)n1` (single isomer, unassigned) [147.0] belongs 4.9 nM.
